The values that follow are results of earlier work, collected in patent EP4140474A1, “NUT[…] THE REDUCTION OF OSTE[…] AND INFLAMMATION” (Theracell Advanced Biotechnology S.A., priority 2021, dated 2023).

The chains behind the UniProt entries cited, without tags or fusion partners. Residues count along the entry.
UniProt P23219, 24-599: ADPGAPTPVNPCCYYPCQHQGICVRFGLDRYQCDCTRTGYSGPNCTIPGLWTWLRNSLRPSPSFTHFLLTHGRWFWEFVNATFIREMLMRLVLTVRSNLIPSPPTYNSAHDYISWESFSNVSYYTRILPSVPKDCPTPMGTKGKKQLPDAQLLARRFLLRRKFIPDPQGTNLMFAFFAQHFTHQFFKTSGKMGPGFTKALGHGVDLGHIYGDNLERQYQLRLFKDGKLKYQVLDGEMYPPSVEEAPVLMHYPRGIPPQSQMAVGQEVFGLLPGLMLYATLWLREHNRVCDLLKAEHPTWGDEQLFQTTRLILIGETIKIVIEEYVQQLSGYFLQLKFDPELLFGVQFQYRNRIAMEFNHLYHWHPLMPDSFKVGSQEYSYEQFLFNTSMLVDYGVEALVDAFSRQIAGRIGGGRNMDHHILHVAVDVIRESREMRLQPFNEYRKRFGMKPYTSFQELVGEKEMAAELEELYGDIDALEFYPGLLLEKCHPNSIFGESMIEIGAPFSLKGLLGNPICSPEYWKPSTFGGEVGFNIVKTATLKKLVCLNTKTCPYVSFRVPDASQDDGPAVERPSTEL

The structures appear in SMILES notation.

In this series the target is cyclooxygenase COX-1 (Homo sapiens, UniProt P23219).

What is called IC50 is the concentration that inhibits the measured activity by half. Regarding `Oc1ccc(C=Cc2cc(O)cc(O)c2)cc1` [resveratrol], the IC50 was 15 µM.
